According to ChEMBL document CHEMBL1141384, “Discovery of a potent, selective, and orally active human epidermal growth factor receptor-2 sheddase inhibitor for the treatment of cancer” (J Med Chem, 2007):
pIC50: −log10 of the molar value.

Biological target: T1, Disintegrin and metalloproteinase domain-containing protein 10 (Homo sapiens, UniProt O14672)
T1 sequence (O14672 whole entry): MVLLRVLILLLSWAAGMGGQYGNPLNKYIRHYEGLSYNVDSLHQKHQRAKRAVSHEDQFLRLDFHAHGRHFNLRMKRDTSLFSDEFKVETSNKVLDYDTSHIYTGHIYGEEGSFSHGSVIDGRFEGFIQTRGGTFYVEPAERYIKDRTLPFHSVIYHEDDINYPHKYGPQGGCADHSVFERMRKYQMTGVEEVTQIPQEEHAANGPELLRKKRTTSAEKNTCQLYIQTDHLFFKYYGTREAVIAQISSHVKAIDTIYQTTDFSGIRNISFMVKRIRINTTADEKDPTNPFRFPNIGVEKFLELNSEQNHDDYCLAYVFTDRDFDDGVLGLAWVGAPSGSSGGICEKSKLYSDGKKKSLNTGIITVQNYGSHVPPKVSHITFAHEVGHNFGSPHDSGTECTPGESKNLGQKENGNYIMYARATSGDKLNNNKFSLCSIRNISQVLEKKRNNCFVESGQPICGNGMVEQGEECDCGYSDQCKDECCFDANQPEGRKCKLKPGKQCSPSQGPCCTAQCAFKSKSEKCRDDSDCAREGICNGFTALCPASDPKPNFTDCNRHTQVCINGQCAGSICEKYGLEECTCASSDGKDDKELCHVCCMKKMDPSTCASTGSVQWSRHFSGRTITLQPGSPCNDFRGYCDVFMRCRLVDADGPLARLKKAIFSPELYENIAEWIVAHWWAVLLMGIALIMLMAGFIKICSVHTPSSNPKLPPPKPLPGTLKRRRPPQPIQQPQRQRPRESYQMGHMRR
Assay: Inhibition of ADAM10

pIC50: 7.48
SMILES: O=C(NO)[C@H]1CC2(CC2)CN[C@@H]1C(=O)N1CC=C(c2ccccc2)CC1
